Drawing on PubChem BioAssay AID588382 (National Center for Advancing Translational Sciences (NCATS), 2011), this text covers Potency for 3 molecules.

This is a selection; strong and weak results do not stand in their true shares. Records with an inconclusive call do not appear. Activity calls are given as the source filed them. The call rests on the fitted dose curve; in most records, active means well fitted cell-killing curve with a large enough effect; inconclusive means small, poorly fitted or top-dose-only effect, or effect the other way; inactive means flat fitted curve, though single readings scatter.
Potency means the concentration at half of the fitted maximal effect.

The nature of the assay: qHTS of small molecules that selectively kill Giardia lamblia: Hit Validation in HepG2 cytotox.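 Further: compound exposure lasted overnight at 37 deg C; nearly all actives have a fitted effect of over 55% in size.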 Conditions: HepG2 cytotoxicity, cell viability. An excerpt:
Giardia lamblia is a human pathogen afflicting impoverished nations, and the most common cause of outbreaks of diarrhea in the United States. Giardia has been classified by the CDC as a category B bioterrorism organism. The favored anti giardiasis drugs in the US are metronidazole or tinidazole, compounds that have undesirable side effects. Moreover, increasing resistance to drug regimes and recurrence are a concern. It is thus clear that alternative drug treatments are needed.
In a collaboration between the University of Maryland, College Park and the NIH Chemical Genomics Center, a bioluminescence Giardia viability assay based on the trophozoites' ATP content was developed. This assay is suitable for high throughput screening, and miniaturized the assay for compound screening in 1536-well plates. The goal of the project is to screen the Molecular Libraries Small Molecule Repository (MLSMR) for compounds that selectively kill Giardia trophozoites. This counterscreen looks at the toxicity of the compounds against the human HepG2 cell line.
NIH Chemical Genomics Center [NCGC]
NIH Molecular Libraries Probe Centers Network [MLPCN]
Assay Submitter (PI): Osnat Herzberg, University of Maryland, College Park, MD.
4 uL of HepG2 cells ae dispensed into white 1536-well plates. They are incubated overnight at 37 deg C and then 23 nL of compounds are transferred to the wells with a pintool. Plates are incubated overnight at 37 deg C. 2 uL of ATPLite is added and the plates are incubated for 15 min at room temperature before they are read on the ViewLux for luminiescence.
For orientation: Quantitative high-throughput screening tests each substance at several concentrations.
As to `CC1=CC2OC3CC4OC(=O)C=CC=CC(=O)OCCC(C)C(O)C(=O)OCC2(CC1O)C4(C)C31CO1` (stereo not drawn), the Potency was active: 0.104 µM.

Take `O=[N+]([O-])c1cc([N+](=O)[O-])c(Nc2ccccn2)c([N+](=O)[O-])c1`: the Potency is active: 9.27 µM.

As to `O=[N+]([O-])c1cc([N+](=O)[O-])c(Nc2cccnc2)c([N+](=O)[O-])c1`, the Potency is active: 13.1 µM.
